From ChEMBL document CHEMBL1143879, “Identification of novel series of human CCR1 antagonists” (Bioorg Med Chem Lett, 2008)

What was measured:
[1] = Selectivity for human CCR1 receptor over CCR3 receptor
[2] = Selectivity for human CCR1 receptor over CCR2 receptor
[3] = Selectivity for human CCR1 receptor over CCR5 receptor

Measured: Selectivity ratio

O=S(=O)(NCCCN1CCC(O)(c2ccc(Cl)cc2)CC1)c1ccccc1-c1ccccc1
> 100: all assays above
